Yeast mating assay B: variants of the scFv Ab-14

Source: Li et al. 2023 (doi:10.1038/s41467-023-39022-2), MIT Lincoln Laboratory and A-Alpha Bio; data file from the FLAb repository.

The target is the same throughout: PDVDLGDISGINAS, from the HR2 region of SARS-CoV-2 spike.

Each scFv is VH, a 15-residue (Gly4Ser)3 linker, VL, as in the parent Ab-14, and differs from it in the CDRs of the light chain only.
VH: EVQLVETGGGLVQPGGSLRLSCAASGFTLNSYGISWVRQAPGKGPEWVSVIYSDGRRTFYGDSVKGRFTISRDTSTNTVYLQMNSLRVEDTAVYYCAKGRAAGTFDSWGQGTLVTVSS
VL: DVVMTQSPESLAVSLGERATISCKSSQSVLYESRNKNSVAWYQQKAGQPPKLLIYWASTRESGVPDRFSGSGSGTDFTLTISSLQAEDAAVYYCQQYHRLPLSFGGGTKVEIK

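Phage display of a naive human antibody library on the peptide gave the parent. Designed CDR sequences, proposed from the first random library and measured here. Their group label is 14L_GP_Gen (GP: Gaussian process model; Gen: genetic algorithm; a sequence that several methods proposed may carry one label only). AlphaSeq pools MATa yeast showing the antibodies with MATalpha yeast showing the peptide. The frequency of each diploid, read from paired DNA barcodes, reflects how well the two displayed proteins bind. Scores were corrected for input abundance and mapped to Kd with protein pairs of known affinity run in the same pool. There are six technical replicates.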

Substitutions are numbered in sequence along the VL above, starting at 1 (not Kabat).
Scale: log10 of Kd in nM, estimated from mating counts; low values are strong binders.
Averages over replicates are reported, and they cover detected replicates only.
"nd" means that the variant was in the library but no mating with the target was seen in that replicate; the authors take this as a sign of poor binding, and no number exists.

| # | changes | log10 Kd (nM) by replicate | mean log10 Kd (nM) | empty controls |
|---|---|---|---|---|
| 1 | S25L/V29W/W56N/T59Q/S62R | 1.03 0.23 1.20 0.85 0.27 0.84 | 0.74 | 0 of 18 |
| 2 | S25L/S26Q/V29W/W56H/E61C | 0.48 0.36 0.73 0.12 0.32 0.48 | 0.42 | 0 of 18 |
| 3 | S25L/Q27M/V29H/W56E | -0.28 -0.38 -0.13 -0.75 0.14 -0.18 | -0.26 | 0 of 18 |
| 4 | S25L/S26Q/V29E/L30G/W56E | -0.03 -0.17 -0.22 -0.17 -0.29 -0.08 | -0.16 | 1 of 18 (1.75) |
| 5 | S25L/N35A/W56G | -0.09 -0.24 -0.26 -0.34 -0.33 -0.03 | -0.22 | 1 of 18 (3.84) |
| 6 | S25L/V29T/W56N/T59Y | 0.25 0.29 0.35 0.21 0.33 0.46 | 0.32 | 1 of 18 (3.02) |
| 7 | S25L/L30M/W56N/T59Q | -0.20 -0.23 -0.37 -0.57 -0.40 -0.30 | -0.35 | 0 of 18 |
| 8 | S25L/S26Q/L30E/W56S | 0.25 -0.12 -0.01 -0.34 -0.15 0.12 | -0.04 | 2 of 18 (2.27) |
| 9 | S25L/S26Y/V29Q/W56N/T59Q | 0.08 -0.12 -0.13 -0.11 -0.09 0.05 | -0.05 | 2 of 18 (2.27) |
| 10 | S25L/W56N/S58H/E61M | 0.52 0.08 0.06 0.47 0.31 0.60 | 0.34 | 1 of 18 (1.81) |
| 11 | S25L/S26Q/W56E/E61S | 0.91 0.86 0.41 0.75 0.85 0.96 | 0.79 | 3 of 18 (3.52) |
| 12 | S25L/S26P/V29Y/W56N/S62V | -0.03 -0.14 -0.35 -0.10 -0.16 -0.12 | -0.15 | 0 of 18 |
| 13 | S25L/V29M/W56N/T59Q | -0.32 -0.44 -0.38 -0.42 -0.43 -0.38 | -0.40 | 0 of 18 |
| 14 | S25L/V29W/N35M/W56N/E61M | 0.18 0.21 0.20 0.26 0.21 0.29 | 0.22 | 0 of 18 |
| 15 | S25M/S38N/W56D | -0.42 0.36 -0.06 0.22 -0.25 -0.12 | -0.05 | 0 of 18 |
| 16 | S25L/S26E/V29D/L30E/W56N | -0.29 -0.32 -0.49 -0.71 -0.62 -0.41 | -0.47 | 2 of 18 (2.89) |
| 17 | S25L/S26P/V29T/W56D | -0.52 -0.26 -0.56 -0.64 -0.31 -0.16 | -0.41 | 0 of 18 |
| 18 | S25L/S26V/W56E | 0.34 0.09 0.06 -0.06 0.07 0.12 | 0.10 | 0 of 18 |
| 19 | S25L/W56E/A57G | -0.44 -0.30 -0.64 -0.83 -0.75 -0.27 | -0.54 | 0 of 18 |
| 20 | S25L/V29E/S38N/W56E/S62D | -0.52 -0.45 -0.53 -0.78 -0.56 -0.33 | -0.53 | 0 of 18 |
| 21 | S25V/S26Y/L30P/W56E | -0.04 -0.12 0.15 -0.13 -0.31 0.31 | -0.02 | 0 of 18 |
| 22 | S25V/V29M/L30D/W56D | -0.25 -0.31 0.25 -0.22 -0.20 -0.14 | -0.14 | 0 of 18 |
| 23 | S25L/V29T/W56N/S62Q | -0.15 -0.22 -0.34 -0.22 -0.08 -0.07 | -0.18 | 3 of 18 (2.84) |
| 24 | S25L/L30Q/W56H | 0.11 0.00 0.01 -0.13 -0.10 0.04 | -0.01 | 3 of 18 (2.98) |
| 25 | S25V/N37Q/W56N | -0.11 -0.29 -0.46 -0.52 -0.45 -0.43 | -0.38 | 0 of 18 |
| 26 | S25L/L30G/W56N/T59Q | 0.15 -0.07 -0.22 -0.22 -0.02 0.16 | -0.04 | 1 of 18 (2.59) |
| 27 | S25L/V29W/W56N/E61M/S62V | 0.27 0.01 0.11 0.01 -0.10 0.06 | 0.06 | 2 of 18 (2.85) |
| 28 | S25L/S38A/W56E/T59Q | -0.23 -0.38 -0.38 -0.51 -0.34 -0.46 | -0.38 | 0 of 18 |
| 29 | S25V/W56E/S62V | -0.23 -0.47 -0.43 -0.41 -0.57 -0.30 | -0.40 | 0 of 18 |
| 30 | S25L/Q27G/W56E/S62V | 0.04 -0.13 -0.29 -0.34 -0.37 0.00 | -0.18 | 0 of 18 |
| 31 | S25L/L30W/W56N/T59Q/S62Q | -0.11 -0.21 -0.37 -0.55 -0.33 -0.26 | -0.30 | 3 of 18 (2.40) |
| 32 | S25L/S26E/L30D/W56N | 0.80 0.52 0.77 0.40 0.68 0.73 | 0.65 | 1 of 18 (1.33) |
| 33 | S25L/W56N/E61W | -0.36 -0.26 -0.44 -0.49 -0.28 -0.17 | -0.33 | 1 of 18 (2.90) |
| 34 | S25L/S26P/V29E/W56S | -0.11 0.05 -0.14 -0.25 -0.16 0.06 | -0.09 | 0 of 18 |
| 35 | S25L/V29Q/W56Q/T59Q | -0.35 -0.34 -0.44 -0.59 -0.64 -0.38 | -0.46 | 2 of 18 (1.44) |
| 36 | S25L/S26E/V29Q/W56N/Q96D | nd -0.55 -0.36 1.12 -0.49 0.52 | 0.05 | 0 of 18 |
| 37 | S25L/S26P/V29E/W56N/T59Q | 0.87 0.13 -0.33 0.32 0.38 0.24 | 0.27 | 0 of 18 |
| 38 | S25L/S26P/V29N/W56N/E61M | -0.21 -0.38 -0.19 -0.66 -0.43 -0.31 | -0.36 | 3 of 18 (3.33) |
| 39 | S25L/N35M/W56N/S62Q | -0.18 -0.08 -0.41 -0.58 -0.54 -0.17 | -0.33 | 1 of 18 (1.62) |

Extract of 2 entries:

| changes | log10 Kd (nM) by replicate | mean log10 Kd (nM) | empty controls |
|---|---|---|---|
| S25L/S26P/V29E/W56S | -0.11 0.05 -0.14 -0.25 -0.16 0.06 | -0.09 | 0 of 18 |
| S25L/V29W/W56N/T59Q/S62R | 1.03 0.23 1.20 0.85 0.27 0.84 | 0.74 | 0 of 18 |

The authors' rule: three or more of the six replicates give a measured affinity, fewer mean a poor binder.
Nonspecific signal, from three strains lacking the peptide, appeared in 4% of pairings of all light chain designs, centred on 2.64 (5% of these signals below 1.59); values are not corrected for it. Also given: how often the same scFv was detected with the empty control strains, with their mean in brackets.
Values of this round are not directly comparable with the first-round values of the same sequences.
Of ten entries with the parent sequence, four were seen in most replicates (averages 0.34 to 2.37), three in one and three in none, so single entries are noisy.